AlphaSeq binding of Ab-14 heavy chain variants to a spike HR2 peptide

Data: MIT Lincoln Laboratory AlphaSeq set, Engelhart et al. 2022, doi:10.1038/s41597-022-01779-4, as distributed in FLAb.

Target peptide (SARS-CoV-2 spike, HR2 region): PDVDLGDISGINAS

Ab-14 is the parent antibody, in scFv form: VH, then a (GGGGS)3 linker, then VL. The light chain is unchanged in all variants.
VH: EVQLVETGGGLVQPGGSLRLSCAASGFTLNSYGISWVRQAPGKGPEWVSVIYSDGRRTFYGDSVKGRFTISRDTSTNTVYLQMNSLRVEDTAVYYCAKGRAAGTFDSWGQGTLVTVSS
VL: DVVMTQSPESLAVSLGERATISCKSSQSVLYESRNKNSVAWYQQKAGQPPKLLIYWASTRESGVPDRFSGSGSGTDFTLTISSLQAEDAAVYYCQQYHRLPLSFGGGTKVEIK

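The parent was found by panning a naive human phage display library on the peptide. In library AAYL49, one, two or three CDR residues were substituted; doubles and triples were drawn at random. AlphaSeq pools MATa yeast showing the antibodies with MATalpha yeast showing the peptide. Pairs that bind mate more often; barcode pairs of the diploids are counted by sequencing. The ratio of observed to expected reads was calibrated, replicate by replicate, on BCL2-family standards whose Kd was known from biolayer interferometry. Each pool was mated in three replicate cultures.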

Substitutions are numbered in sequence along the VH above, starting at 1 (not Kabat).
This list gathers variants with a substitution at G103 (VH, numbered from residue 1).
Kd is apparent (estimated from mating counts) and averaged on the log scale over replicates with a signal. Smaller is tighter.
Where no diploid with the target was found in any replicate, the entry reads "no signal": below detection, most likely a poor binder, though not proof of it.
Nonspecific signal, from three strains lacking the peptide, appeared in 15% of pairings of library AAYL49, centred on 11 µM (5% of these signals below 680 nM); values are not corrected for it. Also given: how often the same scFv was detected with the empty control strains.

The variant L29K+S63W+G103C showed no signal (0 of 3 replicates; controls 1 of 9). For I34L+G103F, the assay gave 34 µM (2 of 3 replicates; controls 2 of 9). With Y52C+D62Q+G103N the result was no signal (0 of 3 replicates; controls 0 of 9). The variant T58F+G103Q+D106E showed 180 nM (3 of 3 replicates; controls 1 of 9). The variant A102Y+G103I gave 23 nM (3 of 3 replicates; controls 1 of 9). For G99D+G103W, the assay gave no signal (0 of 3 replicates; controls 0 of 9).

The variant F27D+S53C+G103V gave 97 µM (2 of 3 replicates; controls 4 of 9). With F27Q+V50T+G103L the result was no signal (0 of 3 replicates; controls 0 of 9). The variant I34L+R57G+G103K gave no signal (0 of 3 replicates; controls 2 of 9). For F27I+D62V+G103W, the assay gave 39 µM (1 of 3 replicates; controls 0 of 9). With G55K+G61N+G103S the result was 190 µM (1 of 3 replicates; controls 1 of 9). The variant Y32A+G61L+G103Q gave 330 nM (3 of 3 replicates; controls 2 of 9).

The variant S35I+R57K+G103Y showed no signal (0 of 3 replicates; controls 0 of 9). With T58V+G103I the result was no signal (0 of 3 replicates; controls 0 of 9). For G26F+R56I+G103I, the assay gave 1.6 µM (3 of 3 replicates; controls 0 of 9). The variant G61N+A102E+G103M gave no signal (0 of 3 replicates; controls 1 of 9). For G61P+G103I+D106P, the assay gave 200 nM (2 of 3 replicates; controls 0 of 9). The variant L29W+Y52H+G103C showed no signal (0 of 3 replicates; controls 0 of 9).

With F27K+K65G+G103D the result was no signal (0 of 3 replicates; controls 0 of 9). The variant G33M+I51N+G103A gave 490 nM (1 of 3 replicates; controls 0 of 9). The variant Y60T+R100M+G103R gave no signal (0 of 3 replicates; controls 1 of 9). For Y60N+G103K+S107Q, the assay gave no signal (0 of 3 replicates; controls 0 of 9). The variant S31R+G103K gave no signal (0 of 3 replicates; controls 0 of 9). For N30A+V64I+G103R, the assay gave no signal (0 of 3 replicates; controls 1 of 9).

The variant F27N+G61A+G103P gave 22 µM (2 of 3 replicates; controls 6 of 9). For G26N+N30R+G103I, the assay gave 19 µM (1 of 3 replicates; controls 1 of 9). With G99R+G103R+T104H the result was 3.7 µM (1 of 3 replicates; controls 2 of 9). For I34V+I51H+G103N, the assay gave no signal (0 of 3 replicates; controls 0 of 9). The variant R56Y+T58D+G103Q gave no signal (0 of 3 replicates; controls 0 of 9). With F27M+S35R+G103H the result was 240 µM (1 of 3 replicates; controls 2 of 9).

3 of these entries, quoted again:

changes,Kd,replicates with signal,empty controls
R56Y+T58D+G103Q,no signal,0 of 3,0 of 9
I34V+I51H+G103N,no signal,0 of 3,0 of 9
F27I+D62V+G103W,39 µM,1 of 3,0 of 9

For reference, the parent read 4.4 nM as the reference entry and 13 µM (one replicate of three) as a member of this library.